Source: patent publication US20250188078A1, “SMALL MOLECULE INHIBITORS OF THE CRL4 UBIQUITIN LIGASE” (Cornell University, priority 2022, published 2025)

Sequences of proteins named here, by UniProt entry; tags and fusion partners are left off. Residues count along the entry.
UniProt Q16531, 403-706 limits assumed: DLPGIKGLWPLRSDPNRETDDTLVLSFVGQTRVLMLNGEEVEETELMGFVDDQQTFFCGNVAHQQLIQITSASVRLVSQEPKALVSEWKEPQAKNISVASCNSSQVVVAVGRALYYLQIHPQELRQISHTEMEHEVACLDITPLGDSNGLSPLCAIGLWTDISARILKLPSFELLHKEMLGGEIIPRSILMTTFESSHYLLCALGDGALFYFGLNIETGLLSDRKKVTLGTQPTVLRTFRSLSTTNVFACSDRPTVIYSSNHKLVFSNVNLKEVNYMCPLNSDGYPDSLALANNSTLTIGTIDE

Assays:
[1] = test system: CUL1-dependent IκB-α degradation in Hela cells; experiment: TNFα-induced CUL1/SCF-dependent IκBα degradation assay (Western blot); settings: FIG. 6D
Procedure: FIG. 6D Western blotting of TNFα-induced […] IκBα degradation assay. Hela cells were seeded in 6-well plates. After 24 hours incubation, DMSO or indicated concentration of compounds were added with serum-free medium for 2 hours incubation. TNFα was added and cells were harvested, lysed in buffer containing 150 mM NaCl, 1% SDS, 10 mM Tris-HCl (pH 6.8), 1× complete protease inhibitor cocktail and 10 U Benzo nuclease. Equal amounts of proteins were resolved on 9% SDS-PAGE gel and IκBα levels were detected using anti-IκBα rabbit polyclonal antibody (Proteintech, 10268-1-AP). α-tubulin (Proteintech, #66031-1-Ig) was used as an internal loading control. TNFα-induced IκBα degradation was mediated by CUL1/SCF^βTrCP E3 ligase.

[2] = target: CUL4A-DDB1-BPB interaction (Homo sapiens (Human), UniProt Q16531); experiment: AlphaLISA in vitro binding assay, CUL4A and DDB1-BPB binding; settings: read-out: AlphaLisa IC50; inhibition of CUL4A and DDB1-BPB binding
Source text: AlphaLISA IC50 (see Table 1, column 4) means the half maximal inhibitory concentration of compound that inhibits CUL4A and DDB1-BPB binding. Our lab established and optimized 384 well-based AlphaLISA in vitro binding assay for testing small molecule inhibitory activity. Small molecule libraries were screened for compounds that disrupt CUL4A-DDB1-BPB interaction using AlphaScreen detection beads (PerkinElmer, #AL112C and #6765300) following the manufacturer's protocol (https://www.perkinelmer.com/PDFs/downloads/GDE-Alphatech.pdf, hereby incorporated by reference in its entirety for all purposes). The 384-well assay plates (Greiner Bio-one, #781075) were read in Synergy Neo2 Hybrid Multi-Mode Reader (BioTek). The IC50 was calculated by Prism 8 XY analysis nonlinear regression (curve fit-Log(inhibitor) vs response).

DDB1-BPB = DDB1-BPB (Homo sapiens (Human), UniProt Q16531); experiment: Surface Plasmon Resonance (SPR) binding to DDB1-BPB; settings: read-out: Kd (SPR); DDB1-BPB immobilized
Source text: Kd represents dissociation constant, which measures the affinity of small molecule binding to the scaffold DDB1-BPB by Surface Plasmon Resonance (SPR) (https://www.bio-rad.com/webroot/web/pdf/lsr/literature/Bulletin_6414.pdf, hereby incorporated by reference in its entirety) (see Table 1, column 8). To assess the interaction between DDB1-BPB and compounds, a multi-parametric SPR instrument (BioRad ProteON XPR360) was used. DDB1-BPB was immobilized onto the GLH sensor surface in a variety of ways as follows: flow channels were activated in parallel with 1/20 diluted EDC/SNHS. DDB1-BPB was diluted to 0.1 mg/mL in sodium acetate pH 4.5 and directly coupled onto channel for 4 min. Excess reactive esters were blocked with a 5-min injection of 1 M ethanolamine. Mean immobilization levels were 17,000 RU with <2% variation along a strip. One channel was left unmodified to provide an additional reference surface. Next, the binding kinetics of compounds on surfaces was determined in a single injection using a “one-shot” kinetic mode. Typically, compound was prepared as a twofold serial dilution (0, 3.125, 6.25, 12.5, 25, 50 μM) and injected for 60 s at […]. Dissociation was monitored for 800 s. […] All resulting sensor grams were collected and analyzed using the ProteOn manager software.

[3] = test system: CUL4A^low T47D breast cancer cells; experiment: Cell killing in CUL4-low T47D cells (CellTiter Glo); settings: read-out: EC50 CUL4-Low Cells (cell killing), 8 days treatment
Procedure: EC50 indicates compound concentration can cause 50% cell killing in CUL4° ^w T47D cells (see Table 1, column 7). CUL4A^low T47D breast cancer cells were seeded in 96 well plate. […] Change fresh medium and compounds every 48 hours. After 8 days treatment, cell viability was examined by using CellTiter Glo kit (Promega #7570) following the manufacturer's guidelines (https://www.promega.com/-/media/files/resources/protocols/technical-bulletins/0/celltiter-glo-luminescent-cell-viability-assay-protocol.pdf?rev=0d95c232094b41daa06d0c110d1d916f&sc_lang=en, hereby incorporated by reference in its entirety for all purposes). EC50 concentration was calculated by Prism 8 XY analysis nonlinear regression (curve fit-Log(inhibitor) vs response). EC50 indicates cell killing potential in CUL4 low T47D cell line and the EC50 difference between CUL4^high and CUL4^low cells indicates the small molecule cause specific cell killing.
Measurements were performed via a Cell Titer Glo assay that measured selective killing of CUL4^high (MDA-MB-468), CUL4^low (T47D), and MCF7 cells. CUL4A^high MDA-MB-468, CUL4^low (T47D), and MCF7 breast cancer cells were seeded in 96 well plates separately. […] Replace with fresh medium and compounds every 48 hours. […] Then record luminescence. EC50 concentration was calculated by Prism 8 XY analysis nonlinear regression (curve fit-Log(inhibitor) vs response).

[4] = test system: CUL4A^high MDA-MB-468 breast cancer cells; experiment: Cell killing in CUL4-high MDA-MB-468 cells (CellTiter Glo); settings: read-out: EC50 CUL4-High Cells (cell killing), 8 days treatment
Procedure: EC50 refers to concentration of compound that induces 50% killing of CUL4A^high MDA-MB-468 cells (see Table 1, column 6). CUL4A^high MDA-MB-468 breast cancer cells were seeded in 96 well plates. After 24 hours, cells were treated with DMSO or compounds. Change fresh medium and compounds. After 8 days treatment, cell viability was examined by using CellTiter Glo kit (Promega #7570) following the manufacturer's guidelines (https://www.promega.com/-/media/files/resources/protocols/technicalbulletins/0/celltiter-glo-luminescent-cell-viability-assay protocol.pdf?rev=0d95c232094b41daa06d0c110d1d916f&sc_lang=en, hereby incorporated by reference in its entirety for all purposes). EC50 concentration was calculated by Prism 8 XY analysis nonlinear regression (curve fit-Log(inhibitor) vs response). Lower EC50 indicates high cell killing potential in CUL4^high MDA-MB-468 cells.
Measurements were performed via a Cell Titer Glo assay that measured selective killing of CUL4^high (MDA-MB-468), CUL4^low (T47D), and MCF7 cells. CUL4A^high MDA-MB-468, CUL4^low (T47D), and MCF7 breast cancer cells were seeded in 96 well plates separately. Cells were treated with DMSO, or from 0 to 20 μM compound respectively. Replace with fresh medium and compounds every 48 hours. […] Then record luminescence. EC50 concentration was calculated by Prism 8 XY analysis nonlinear regression (curve fit-Log(inhibitor) vs response).

With CN(c1ccc(-c2nc(C(=O)O)cc3c2[nH]c2ccccc23)cc1)S(=O)(=O)c1ccccc1 the “Inhibition of TNF-α induced CUL1-dependent IκB-α degradation” value [1] was “no inhibition”, the IC50 [2] was 0.84 µM and the Kd (DDB1-BPB) was 3.44 µM. For the same molecule, the EC50 [3] was > 100 µM and the EC50 [4] was 46.5 µM.
